Measured values published in article PMC9610285, “Polymorphism of Drug Transporters, Rather Than Metabolizing Enzymes, Conditions the Pharmacokinetics of Rasagiline” (Pharmaceutics, 2022).

Settings: 1 mg single oral dose, fasting
Procedure: The data used in this work were obtained from four bioequivalence clinical trials conducted at the Clinical Trials Unit of the Hospital Universitario de La Princesa (UECHUP) (EUDRA-CT IDs: 2012-004433-17, 2013-002159-14, 2014-001123-77 and 2021-000315-23). […] The reference formulation (R) in all cases was Azilect® 1 mg tablets (TEVA Pharmaceuticals Europe B.V.), which was compared against different test formulations (T), all of them 1 mg tablets, except in clinical trial 3, whose test formulation was orodispersible 1 mg. The four bioequivalence trials had two periods and two sequences (TR and RT). In the first period, the volunteers randomly were administered one of the two formulations and, in the following period, after a 7-day washout period, the opposite formulation. All of them were reviewed and approved by Independent Ethics Board (IEB) of the Hospital Universitario de La Princesa, and by the Spanish Drug Agency (AEMPS). In addition, they were performed in accordance with the guidelines of the International Conference on Harmonization for Good Clinical Practice (ICH-GCP), current Spanish legislation and the Revised Declaration of Helsinki. The pharmacogenetic study (SFC-FG-2020-1) was likewise approved by the IEB of Hospital Universitario de La Princesa (registry number 4176, 9 July 2020).
In each period, the drug was administered under fasting conditions, which were maintained until 5 h after drug administration. Each subject provided 20 or 21 blood samples (depending on the clinical trial) that were extracted by BD Vacutainer® vacuum system with EDTA K2 tubes for analysis at different times between 0 h (before receiving the drug) and up to 12 h after drug intake. […] A high-performance liquid chromatography coupled to triple quadrupole mass spectrometry (HPLC-MS/MS) analytical method was used. The latter was validated according to European regulations for bioequivalence assessment, with a lower limit of quantification (LLOQ) of 10 pg/mL and a calibration range of 10–10,000 pg/mL.
Pharmacokinetic parameters were calculated with WinNonlin Professional (Scientific Consulting, Inc., Cary, NC, USA) following a non-compartmental model. The area under the curve (AUC0-t), was obtained by the trapezoidal method. The extrapolation to infinity (AUC0-∞) was determined by the sum of two partial AUCs: AUCt-∞ calculated by the ratio Ct/k, where Ct is the last detectable concentration and k the elimination slope; plus AUC0-t. Cmax and tmax were directly obtained from the plasma time-concentration curves. t1/2 was calculated as Ln2/k. Plasma clearance adjusted for bioavailability (Cl/F) was calculated as dose/AUC. Finally, the volume of distribution adjusted for bioavailability (Vd/F) was calculated by dividing Cl/F by k.
The SPSS software (v23.0, SPSS Inc., Chicago, IL, USA) was used for statistical analyses. AUC0-∞, and Cmax were divided by the dose/weight (DW) ratio to correct sex-related variability related to a varying weight. For the same purpose, Vd/F and Cl/F were divided by weight. With the purpose of normalizing their distributions, all pharmacokinetic parameters were logarithmically transformed for statistical analysis. Initially, a univariate analysis was conducted of the demographic characteristics according to sex and ethnicity, and of the pharmacokinetic parameters or ADR incidence based on sex, biogeographical group (hereinafter, “ethnicity”), genotypes and phenotypes.

C#CCN[C@@H]1CCc2ccccc21 [rasagiline, Rasagiline]
Vd/F (ABCB1 rs1045642 A/A, n=23): 13.89 ± 3.87 L/kg | Vd/F (ABCB1 rs1045642 G/A, n=61): 14.71 ± 6.41 L/kg | Vd/F (ABCB1 rs1045642 G/G, n=34): 17.59 ± 5.97 (pu = 0.018, pm = 0.001) ^$ L/kg | Vd/F (ABCC2 rs2273697 A/A, n=3): 12.72 ± 2.28 L/kg | Vd/F (ABCC2 rs2273697 G/A, n=42): 14.95 ± 6.30 L/kg | Vd/F (ABCC2 rs2273697 G/G, n=73): 15.73 ± 5.94 L/kg | Vd/F (COMT rs4680 A/A, n=26): 17.45 ± 6.66 (pm=0.027) L/kg | Vd/F (COMT rs4680 G/A, n=56): 14.40 ± 6.06 L/kg | Vd/F (COMT rs4680 G/G, n=36): 15.39 ± 5.13 L/kg | Vd/F (CYP1A2 *1B/*1B, n=6): 11.98 ± 3.33 L/kg | Vd/F (CYP1A2 *1B/*1F, n=36): 15.24 ± 5.73 L/kg | Vd/F (CYP1A2 *1B/*1L, n=4): 18.28 ± 7.57 L/kg | Vd/F (CYP1A2 *1B/*1N, n=5): 19.45 ± 9.55 L/kg | Vd/F (CYP1A2 *1F/*1F, n=38): 15.32 ± 5.34 L/kg | Vd/F (CYP1A2 *1J/*1N, n=5): 11.59 ± 3.81 L/kg | Vd/F (CYP1A2 *1L/*1F, n=11): 13.05 ± 4.16 L/kg | Vd/F (CYP1A2 *1L/*1L, n=6): 15.94 ± 5.55 L/kg | Vd/F (CYP1A2 *1N/*1K, *1N/*1L, *1N/*1L and *1N/*1G merged, n=4): 22.89 ± 12.33 L/kg | Vd/F (CYP2C19 µM, n=3): 15.39 ± 12.27 L/kg | Vd/F (CYP2C19 IM, n=36): 16.62 ± 5.25 L/kg | Vd/F (CYP2C19 NM, n=56): 15.07 ± 5.84 L/kg | Vd/F (CYP2C19 PM, n=2): 7.33 ± 1.58 L/kg | Vd/F (CYP2C19 RM, n=21): 14.82 ± 6.62 L/kg | Vd/F (Caucasian, n=83): 15.00 ± 5.72 L/kg | Vd/F (Men, n=53): 12.18 ± 3.78 *^& L/kg | Vd/F (Mixed ethnicity, n=35): 16.27 ± 6.62 L/kg | Vd/F (NAT2 RA, n=9): 17.96 ± 5.87 L/kg | Vd/F (NAT2 SA, n=103): 15.07 ± 6.05 L/kg | Vd/F (SLC22A1*3 (rs12208357) *1/*1, n=104): 15.52 ± 6.05 L/kg | Vd/F (SLC22A1*3 (rs12208357) *1/*3, n=8): 12.35 ± 3.96 L/kg | Vd/F (SLC22A1*5 (rs34059508) *1/*1, n=113): 15.38 ± 6.07 L/kg | Vd/F (Total with CYP1A2 diplotype, n=115): 15.32 ± 6.06 L/kg | Vd/F (Total, n=118): 15.38 ± 6.00 L/kg | Vd/F (UGT1A6 rs7592281 G/G, n=111): 15.25 ± 5.93 L/kg | Vd/F (UGT1A6 rs7592281 G/T, n=7): 17.43 ± 7.29 L/kg | Vd/F (Women, n=65): 17.98 ± 6.23 L/kg

Read-outs that look alike come from different tables or passages of the source.
